From publication PMC6212409, “Ginsentides: Cysteine and Glycine-rich Peptides from the Ginseng Family with Unusual Disulfide Connectivity” (2018)

How the values were obtained:
Huh7 cells = assay: Cell viability assay (MTT); conditions: concentrations up to 100 µM, 24 h, absorbance 550 nm, n = 3
Heat stability assay = conditions: 10 μg in 100 μL distilled water, RP-HPLC relative peak area vs room-temperature control, mean, n = 3
Acid stability assay = conditions: 0.2 N HCl (0.2 M HCl), 37 °C, 2 h; 10 μg in 100 μL; RP-HPLC vs control without acid; n = 3
THP-1 cells = assay: Immunogenicity assay (cytokine ELISA); conditions: 6 h treatment, ELISA of supernatant, LPS positive control, n = 3
red blood cells = assay: Hemolytic assay; conditions: 1% suspension in PBS, concentrations up to 100 µM, 37 °C, 1 h, absorbance 415 nm, n = 3

SMILES: CC(C)C[C@@H]1NC(=O)[C@@H]2CSSC[C@@H]3NC(=O)[C@H](Cc4c[nH]c5ccccc45)NC(=O)[C@H](C)NC(=O)CNC(=O)CNC(=O)[C@H](CO)NC(=O)[C@H](CCCCN)NC(=O)[C@@H](N)CSSC[C@@H]4NC(=O)[C@H](CSSC[C@H](NC(=O)[C@H](Cc5ccccc5)NC(=O)CNC(=O)[C@H](C(C)C)NC1=O)C(=O)N[C@@H](Cc1ccc(O)cc1)C(=O)NCC(=O)N[C@@H]([C@@H](C)O)C(=O)NCC(=O)N[C@H](C(=O)O)CSSC[C@H](NC(=O)[C@H](CC(N)=O)NC(=O)CNC4=O)C(=O)NCC(=O)N2)NC(=O)CNC(=O)[C@H](Cc1c[nH]cn1)NC(=O)[C@@H]1CCCN1C(=O)[C@H](CC(=O)O)NC(=O)[C@H](Cc1ccccc1)NC(=O)CNC3=O
- cell viability (cytotoxicity) (Huh7 cells): no change in cell viability
- degradation after heating (Heat stability assay; 100 °C for 30 min): less than 10%
- degradation after heating (Heat stability assay; 100 °C for 120 min): 29%
- acid stability (Acid stability assay): highly stable
- IL-6 secretion (THP-1 cells): no observable increase
- IL-8 secretion (THP-1 cells): no observable increase
- IL-10 secretion (THP-1 cells): no observable increase
- TNF-α secretion (THP-1 cells): no observable increase
- hemolysis (red blood cells): no change
